{"source": "patent US20050014682A1", "about": "“Cell-free assay for insulin signaling” (priority 2003, published 2005)", "key": {"Akt": {"system": "Akt", "assay": "Cell-free in vitro assay (3T3-L1 adipocyte PM/CYT/LDM fractions), Akt phosphorylation by phospho-Akt immunoblot", "format": "biochemical"}, "IRS-1": {"system": "IRS-1", "assay": "Cell-free in vitro assay, tyrosine phosphorylation by immunoprecipitation and phosphotyrosine immunoblot", "format": "biochemical"}, "glucose uptake": {"system": "glucose uptake", "conditions": "adipocytes; Calderhead, 1990; cited from earlier work"}}, "data": [{"substance": "insulin", "values": [{"measurement": "time of peak insulin-stimulated Akt phosphorylation signal from start of reaction", "setting": "Akt; PM(+ins) and CYT, 37° C.", "value": "10 to 15", "unit": "min"}, {"measurement": "Akt phosphorylation on Thr308 and Ser473 in response to insulin", "setting": "Akt; PM(+ins) from cells pre-exposed to 1 μM insulin at 4° C.", "value": "properly phosphorylated"}, {"measurement": "Akt activation by direct addition of insulin", "setting": "Akt; insulin added directly to in vitro reactions containing PM(−ins)", "value": "not activated"}, {"measurement": "time of peak phosphotyrosine signal from start of reaction", "setting": "IRS-1", "value": 2.5, "unit": "min"}, {"measurement": "increase in glucose uptake in response to acute stimulation with insulin", "setting": "glucose uptake", "value": "10-20 fold"}]}]}
